Molecules are shown by their SMILES. The entries are a selection whose mix differs from that of the whole data set. Some results for these compounds are left out of this collection, so the calls shown say nothing about other tests. Inconclusive results are not listed. The source made the active and inactive calls. Calls come from the whole dose curve; as a rule, active = well fitted activation curve with a large enough effect; inconclusive = small, poorly fitted or top-dose-only effect; inactive = no such curve, though single readings can be large or run the other way.

The nature of the assay: A quantitative high throughput screen for small molecules that induce DNA re-replication in MCF 10a normal breast cells. Note: % of control where 0% means no effect; nearly all actives have a fitted effect of over 50% in size. To be noted: MCF 10A DNA re-replication, Hoechst nuclear intensity, 48 h; at 46.1 µM (top of the series).
In the case of `O=C(OCCN1CCCC1)C(O)(c1ccccc1)c1ccccc1`, the activity, positive = re-replication is inactive: 0.553%. The value for `CC(C)Oc1ccc(C(=O)NCC2(N(C)C)CCCCC2)cc1` was inactive: -16.7%. Regarding `CN(C)c1cccc(C(=O)NCC2(N(C)C)CCCCC2)c1`, the activity, positive = re-replication is inactive: 0.734%. On to `COc1ccc(Br)c(C(=O)NCC2(N3CCCCC3)CCCCC2)c1`, for which the activity, positive = re-replication was inactive: -2.75%.

Consider `O=C(OC1CN2CCC1CC2)C(CO)(c1ccccc1)c1ccccc1` (stereo not given), for which the activity, positive = re-replication is inactive: 2.37%.

Take `COc1ccc(Cl)cc1C(=O)NCC1(N(C)C)CCCCC1`: the activity, positive = re-replication was inactive: -14.1%.

With `COc1cccc(C(=O)NCC2(N3CCCCC3)CCCCC2)c1`, the activity, positive = re-replication is inactive: 0.47%. `COc1cc(C(=O)NCC2(N(C)C)CCCCC2)c([N+](=O)[O-])cc1OC`: the activity, positive = re-replication was inactive: -3.58%.

As for `CN(C)C1(CNC(=O)c2ccc(Br)cc2)CCCCC1`, the activity, positive = re-replication is inactive: 1.51%. For `COc1ccc(C(=O)NCC2(N(C)C)CCCCC2)cc1` the value was inactive: -3.96%; for `O=C(NCC1(N2CCCCC2)CCCCC1)c1cccc(Br)c1`, inactive: 2.37%; for `Cc1cc(C(=O)NCC2(N3CCCCC3)CCCCC2)ccc1[N+](=O)[O-]`, inactive: -3.81%. The value for `CCN1CCCC(OC(=O)C2(O)c3ccccc3C=Cc3ccccc32)C1` (stereo not given) was inactive: -2.61%; that for `O=C(NCC1(N2CCCCC2)CCCCC1)c1cc(F)c(F)cc1Cl` was inactive: -1.59%. With `C=CCN1CCN(CCOC(=O)C(O)(c2ccccc2)c2ccccc2)CC1`, the activity, positive = re-replication was inactive: 16.9%. Turning to `CN1CCCC(OC(=O)C(O)(c2ccccc2)c2ccccc2)C1` (stereo not given), the activity, positive = re-replication is inactive: 7.44%. Regarding `CN(C)C1CCCC1OC(=O)C(O)(c1ccccc1)c1ccccc1` (stereo not given), the activity, positive = re-replication was inactive: 0.482%. The value for `CN(C)c1ccc(C(=O)NCC2(N(C)C)CCCCC2)cc1` was inactive: -19.3%; that for `Cc1ccccc1C(=O)NCC1(N2CCCCC2)CCCCC1` was inactive: -0.214%.

Turning to `Cc1ccc(C(=O)NCC2(N3CCCCC3)CCCCC2)cc1`, the activity, positive = re-replication is inactive: 4.66%.

Regarding `COc1cc(SC)ccc1C(=O)NCC1(N(C)C)CCCCC1`, the activity, positive = re-replication is inactive: -7.94%. Turning to `CCN(CC)CC(C)C(C)OC(=O)C(O)(c1ccccc1)c1ccccc1` (stereo not given), the activity, positive = re-replication is inactive: 13.1%. As for `CC(C)N1C(=O)CC2(CCN(CCOC(=O)C(O)(c3ccccc3)c3ccccc3)CC2)C1=O`, the activity, positive = re-replication is inactive: 10.2%. Consider `CN1[C@@H]2CC[C@H]1CC(OC(=O)C(O)(c1ccccc1)c1ccccc1)C2` (stereo not given in full), for which the activity, positive = re-replication is inactive: -11.3%. The value for `O=C(NCC1(N2CCCCC2)CCCCC1)c1cc([N+](=O)[O-])ccc1Cl` was inactive: 0.758%.

Source of the values: PubChem BioAssay AID624296 (National Center for Advancing Translational Sciences (NCATS), 2012).
